Protein sequences, listed by entry. Tags and fused reporters are not part of them.
UniProt O60260, whole entry, chain 1 of 2: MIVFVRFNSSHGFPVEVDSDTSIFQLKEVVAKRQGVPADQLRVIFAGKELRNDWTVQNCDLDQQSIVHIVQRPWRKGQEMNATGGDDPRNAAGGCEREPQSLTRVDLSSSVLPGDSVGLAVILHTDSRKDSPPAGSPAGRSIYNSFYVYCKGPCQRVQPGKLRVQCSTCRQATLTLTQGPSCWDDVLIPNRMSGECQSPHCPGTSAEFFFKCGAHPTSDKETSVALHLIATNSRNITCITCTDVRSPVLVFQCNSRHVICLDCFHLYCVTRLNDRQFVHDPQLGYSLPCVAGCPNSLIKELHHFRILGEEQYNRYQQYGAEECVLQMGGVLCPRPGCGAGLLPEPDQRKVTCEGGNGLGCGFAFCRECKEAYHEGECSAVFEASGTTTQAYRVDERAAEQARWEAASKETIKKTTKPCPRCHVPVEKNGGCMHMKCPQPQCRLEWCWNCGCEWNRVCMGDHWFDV

In paper PMC4609183:

Molecular target: phosphoparkin/phosphoubiquitin complex (UniProt O60260)
Test: ITC; phosphoparkin (35 μM) complexed with phosphoubiquitin titrated with UbcH7 or UbcH7∼Ub; 25°C; single-site model

UbcH7 (from UniProt P68036 1-154) (enzyme)
Kd: 19 µM
